Assay results published in paper PMC4491176, “Caenorhabditis elegans is a useful model for anthelmintic discovery” (Nature Communications, 2015).

By UniProt entry, the sequences of proteins in these tests, tags left out. Where a name states a change or a piece, a line headed by the entry shows the natural chain unless it says otherwise. Residues count along the entry.
UniProt O62215, whole entry: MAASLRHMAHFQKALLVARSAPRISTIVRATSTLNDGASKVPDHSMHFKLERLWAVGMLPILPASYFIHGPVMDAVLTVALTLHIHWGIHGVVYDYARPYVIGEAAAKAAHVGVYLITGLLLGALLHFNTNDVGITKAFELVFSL
UniProt P41956, whole entry: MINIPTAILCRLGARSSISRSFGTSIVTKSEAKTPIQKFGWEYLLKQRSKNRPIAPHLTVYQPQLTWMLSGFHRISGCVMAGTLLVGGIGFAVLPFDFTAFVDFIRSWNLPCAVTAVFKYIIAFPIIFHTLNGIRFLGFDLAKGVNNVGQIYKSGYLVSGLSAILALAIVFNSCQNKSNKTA
UniProt P41956, whole entry R74K: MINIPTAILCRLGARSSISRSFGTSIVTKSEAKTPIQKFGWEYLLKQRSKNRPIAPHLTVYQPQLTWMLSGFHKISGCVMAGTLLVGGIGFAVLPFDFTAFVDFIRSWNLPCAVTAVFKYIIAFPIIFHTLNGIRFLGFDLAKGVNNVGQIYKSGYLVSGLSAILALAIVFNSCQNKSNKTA
UniProt Q09508, 32-646 limits assumed: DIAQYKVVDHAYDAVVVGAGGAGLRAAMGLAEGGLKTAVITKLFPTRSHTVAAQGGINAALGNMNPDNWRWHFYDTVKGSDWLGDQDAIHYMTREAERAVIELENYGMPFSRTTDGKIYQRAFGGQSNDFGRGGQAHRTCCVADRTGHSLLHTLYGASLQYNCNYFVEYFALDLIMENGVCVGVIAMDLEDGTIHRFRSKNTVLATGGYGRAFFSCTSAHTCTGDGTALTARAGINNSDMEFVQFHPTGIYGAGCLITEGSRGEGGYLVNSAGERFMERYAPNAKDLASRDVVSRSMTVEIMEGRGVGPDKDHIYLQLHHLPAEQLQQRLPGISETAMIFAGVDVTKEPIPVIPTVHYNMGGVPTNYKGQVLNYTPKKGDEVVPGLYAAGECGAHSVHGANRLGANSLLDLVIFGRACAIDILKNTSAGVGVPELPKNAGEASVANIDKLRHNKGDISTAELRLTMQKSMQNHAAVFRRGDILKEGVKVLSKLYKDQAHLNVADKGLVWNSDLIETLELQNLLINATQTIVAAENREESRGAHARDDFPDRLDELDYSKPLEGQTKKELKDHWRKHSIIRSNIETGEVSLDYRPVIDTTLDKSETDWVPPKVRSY
UniProt Q09545, whole entry: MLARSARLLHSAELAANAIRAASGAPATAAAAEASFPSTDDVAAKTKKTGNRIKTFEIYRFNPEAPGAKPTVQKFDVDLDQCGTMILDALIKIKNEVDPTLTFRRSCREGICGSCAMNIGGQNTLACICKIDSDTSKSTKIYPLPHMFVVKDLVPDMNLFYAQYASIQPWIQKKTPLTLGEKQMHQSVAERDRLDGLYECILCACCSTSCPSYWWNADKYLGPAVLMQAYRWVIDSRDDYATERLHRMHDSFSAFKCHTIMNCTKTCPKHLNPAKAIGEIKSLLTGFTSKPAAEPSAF
UniProt Q9CQA3, 31-282 limits assumed: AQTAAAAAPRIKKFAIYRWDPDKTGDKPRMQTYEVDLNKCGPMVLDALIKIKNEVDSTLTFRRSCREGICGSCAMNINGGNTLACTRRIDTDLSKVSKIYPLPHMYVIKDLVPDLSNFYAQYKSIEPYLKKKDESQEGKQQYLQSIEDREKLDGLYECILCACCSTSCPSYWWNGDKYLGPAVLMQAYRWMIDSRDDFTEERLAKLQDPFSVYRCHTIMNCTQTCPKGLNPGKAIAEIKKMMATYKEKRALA
UniProt Q9CXV1, 57-159 limits assumed: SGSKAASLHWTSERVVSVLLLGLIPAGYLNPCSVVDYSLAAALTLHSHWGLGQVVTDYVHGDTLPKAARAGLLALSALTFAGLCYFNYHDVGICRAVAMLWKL
UniProt Q9CZB0, 30-169 limits assumed: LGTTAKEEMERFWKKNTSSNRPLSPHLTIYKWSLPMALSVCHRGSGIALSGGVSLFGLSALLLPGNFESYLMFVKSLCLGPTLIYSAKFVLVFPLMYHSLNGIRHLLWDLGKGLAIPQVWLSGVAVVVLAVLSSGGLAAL
UniProt Q8K2B3, 43-664 partner limits assumed: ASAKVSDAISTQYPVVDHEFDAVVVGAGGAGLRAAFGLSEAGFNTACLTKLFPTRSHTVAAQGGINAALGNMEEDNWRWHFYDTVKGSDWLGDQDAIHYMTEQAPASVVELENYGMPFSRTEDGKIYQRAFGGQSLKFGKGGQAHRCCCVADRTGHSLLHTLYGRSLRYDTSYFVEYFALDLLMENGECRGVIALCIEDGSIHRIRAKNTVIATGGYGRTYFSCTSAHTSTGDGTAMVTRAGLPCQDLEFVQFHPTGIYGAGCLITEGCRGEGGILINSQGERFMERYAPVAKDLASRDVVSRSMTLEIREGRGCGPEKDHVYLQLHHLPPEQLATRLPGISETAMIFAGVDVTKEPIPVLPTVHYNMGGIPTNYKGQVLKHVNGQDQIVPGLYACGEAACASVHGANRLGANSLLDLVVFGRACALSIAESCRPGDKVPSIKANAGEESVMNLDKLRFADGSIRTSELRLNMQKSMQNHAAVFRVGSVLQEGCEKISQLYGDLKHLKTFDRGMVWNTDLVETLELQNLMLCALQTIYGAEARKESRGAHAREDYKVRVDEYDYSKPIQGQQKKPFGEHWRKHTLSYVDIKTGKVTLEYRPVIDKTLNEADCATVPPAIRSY

How the values were obtained:
[1] = molecular target: wild-type C. elegans complex II (Caenorhabditis elegans, UniProt O62215+P41956+Q09508+Q09545); experiment: Cell-free Complex II functional assay, mitochondria from wild-type (N2) worms; conditions: for IC50 lower than that of wact-11: C. elegans N2 complex II; for IC50: read-out: In vitro Complex II IC50, C. elegans, strain N2, SDHC residue change none; for Decrease of complex II inhibition relative to wact-11: C. elegans N2 complex II IC50 ratio
[2] = molecular target: C. elegans complex II with SDHC-1(R74K) missense mutation (Caenorhabditis elegans, UniProt O62215+P41956+Q09508+Q09545, R74K); experiment: Cell-free Complex II functional assay, mitochondria from wact-11-resistant mutants RP2674 and RP2698
Experimental: HB101 E. coli cells (C. elegans Genetics Center, University of Minnesota) from a 1 l saturated culture were pelleted by centrifugation at 2,500g for 10 min, and then resuspended in 50 ml complete S-medium (see ref. [37] for recipe). In all, 450,000 synchronized first larval-stage worms, in M9 buffer, were added to the S-media/HB101 suspension and were grown to adulthood over 3.5 days at 20 °C with shaking at 200 r.p.m. Worms were collected in 6 × 15 ml conical tubes and washed eight times with M9 buffer. The worms from the six tubes were combined into one 15 ml conical tube, and resuspended in 15 ml M9 buffer. One millilitre aliquots of the worm suspension were distributed to each of the 15 × 1.5 ml Sarstedt microcentrifuge tubes. The worms were pelleted by centrifugation at 800g, and the M9 buffer was aspirated without disrupting the pellet. […]
(§1) Mitochondrial pellets were thawed on ice and resuspended in 300 μl of cold isolation buffer B. Using the BCA assay, the protein concentration of the mitochondria suspension was determined and was subsequently diluted to a concentration of 0.2 mg ml^−1 with cold isolation buffer B. Complex II enzymatic assays were carried out in 96-well flat bottom plates. […] Absorbance for each well was measured at 600 nm using a SpectraMax Plus 384-well Microplate Reader, combined with SoftmaxPro software at 30-s intervals over a 35-min time period. […]

Mouse complex II = Mouse complex II (Mus musculus, UniProt Q9CQA3+Q9CXV1+Q9CZB0); experiment: Cell-free Complex II functional assay, mouse liver mitochondria; conditions: read-out: In vitro Complex II IC50; M. musculus, C57Bl/6 liver mitochondria
Experimental: The livers from three 8–10-week-old C57Bl/6 female mice (Charles River) were removed, collected in 1.5 ml microcentrifuge tubes, flash frozen in liquid nitrogen and stored at −80 °C until needed. Just before mitochondria isolation, the livers were weighed, placed into a 10-cm petri dish and 10 ml isolation buffer A was added per gram of liver tissue. The tissue was finely minced with a razor blade, transferred to a glass Dounce homogenizer and homogenized by 10 strokes on ice. The homogenate was centrifuged at 1,000g for 10 min at 4 °C. The supernatant was collected and centrifuged at 1,000g for 10 min at 4 °C. The supernatant was again collected and centrifuged at 16,000g for 10 min at 4 °C. […]
as §1, with “period. Absorbance versus time was plotted for each well and enzyme activity was calculated as the slope of the line defined by the points ranging from 4 to 10 min.” for “period.”

C. elegans N2 = experiment: 96-well liquid-based dose-response (in vivo LD100), wild-type worms; conditions: lowest concentration with no viable animals in four of four wells, 6 days after 20 L1 worms deposited
Experimental: (§2) The 96-well liquid-based chemical screening assay was adapted from an established RNAi screening protocol. Briefly, saturated HB101 Escherichia coli culture was concentrated 2-fold using NGM (nematode growth media) containing 3 mg ml^−1 NaCl, 2.5 mg ml^−1 peptone, 5 μg ml^−1 cholesterol, 1 mM CaCl2, 1 mM MgSO4 and 25 mM KH2PO4. A total of 40 μl of NGM+HB101 was dispensed into each well of a 96-well plate, and chemicals were pinned into the wells using a pinning tool with a 300 nl slot volume (V&P Scientific). Approximately 20 synchronized first larval-stage (L1) worms, in 10 μl of M9 buffer (see ref. [24] for the recipe), were then added to each well. The synchronized L1s were obtained from an embryo preparation (see ref. [24] for the protocol) performed the previous day. The final concentration of dimethyl sulfoxide (DMSO) in the wells was 0.6% v/v. A dissection microscope was used to visualize the wells either 5 or 6 days post worm deposition and any obvious chemical-induced phenotypes were noted.
(§3) The 96-well liquid-based assay was also used for all follow-up dose-response experiments in this work. These experiments were carried out in quadruplicate, and the total number of worms in each well was counted 6 days after worm deposition.

[3] = system: wact-11-family resistant C. elegans mutants (RP2674, RP2698 and others); experiment: 96-well liquid-based dose-response (in vivo LD100), wact-11-family resistant mutants; conditions: 6 days
Experimental: as §2, §3

Compound	IC50 [1]	In vivo LD100 (C. elegans N2)	further results
O=C(NCCc1ccc(Cl)cc1Cl)c1ccccc1C(F)(F)F	0.001 µM	0.469 µM	IC50 lower than that of wact-11 [1]: over 7 fold; IC50 ([2]; read-out: In vitro Complex II IC50, strain RP2674, SDHC R74K): > 10 µM; IC50 ([2]; read-out: In vitro Complex II IC50, strain RP2698, SDHC R74K): > 10 µM; IC50 (Mouse complex II): > 10 µM; In vivo LD100 ([3]; C. elegans strain RP2674 (SDHC R74K)): >120 µM; In vivo LD100 ([3]; C. elegans strain RP2698 (SDHC R74K)): >120 µM
O=C(NCCc1ccc(Cl)cc1)c1ccccc1	0.633 µM	>120 µM	Decrease of complex II inhibition relative to wact-11 [1]: at least 86 fold
O=C(NCCc1ccccc1)c1ccccc1C(F)(F)F	0.0261 µM	60 µM	
O=C(NCCc1ccc(Cl)cc1)c1ccc(C(F)(F)F)cc1	> 10 µM	>120 µM	Decrease of complex II inhibition relative to wact-11 [1]: at least 1,300 fold
O=C(NCCOc1ccc(Cl)cc1)c1ccccc1Br	0.0078 µM	30 µM	
O=C(NCCc1ccc(F)cc1)c1ccccc1I	0.0153 µM	60 µM	
Cc1ccc(OCCNC(=O)c2ccccc2I)cc1	0.0077 µM	7.5 µM	
O=C(NCCc1ccc(Cl)cc1)c1ccccc1I	0.0058 µM	7.5 µM	
O=C(NCCSc1ccc(Cl)cc1)c1ccccc1I	0.129 µM	>120 µM	
O=C(NCCc1ccc(Cl)cc1Cl)c1ccccc1Br	0.001 µM	0.469 µM	IC50 lower than that of wact-11 [1]: over 7 fold
O=C(NCCc1ccc(Cl)cc1)c1ccccc1F	0.17 µM	60 µM	
O=C(NCCc1ccc(Cl)cc1)c1ccccc1Br	0.0075 µM	1.875 µM	

Where two headings read alike, the source gives them in different places.
